This is a selection; strong and weak results do not stand in their true shares. Some results for these compounds are left out of this collection, so the calls shown say nothing about other tests. Records with an inconclusive call do not appear. A call without a number means that no potency is given here. Activity calls are given as the source filed them. The call rests on the fitted dose curve; in most records, active means well fitted inhibition curve with a large enough effect; inconclusive means small, poorly fitted or top-dose-only effect; inactive means no such curve, though single readings can be large or run the other way.
Potency means the concentration at half of the fitted maximal effect.

Amino acid sequences for entries named in this document (tags omitted). Residues count along the entry.
UniProt Q96KQ7, 913-1193 limits assumed: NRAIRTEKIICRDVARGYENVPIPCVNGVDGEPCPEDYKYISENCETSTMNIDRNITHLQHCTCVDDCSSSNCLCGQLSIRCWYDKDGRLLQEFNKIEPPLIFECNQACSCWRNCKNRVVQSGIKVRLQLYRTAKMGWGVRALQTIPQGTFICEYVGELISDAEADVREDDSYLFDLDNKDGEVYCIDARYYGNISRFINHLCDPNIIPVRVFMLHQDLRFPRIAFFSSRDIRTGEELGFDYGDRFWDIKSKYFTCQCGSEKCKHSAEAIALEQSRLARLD

This assay deals with Histone-lysine N-methyltransferase EHMT2 (Homo sapiens) (UniProt Q96KQ7). Kind of assay: qHTS Assay for Inhibitors of Histone Lysine Methyltransferase G9a. Further: nearly all actives have a fitted effect of over 75% in size. The conditions noted are these: G9a H3K9 monomethylation, AlphaScreen, 2 h; series mostly up to 59 µM. On the technique in general: In qHTS, concentration-response curves come from the screen itself.
Turning to `CN1CCCC(OC(=O)C(O)(c2ccccc2)c2ccccc2)C1` (stereo unspecified), the activity, negative = inhibition was inactive: -31.5% [at 12.7 µM].

Take `CCCCOc1ccccc1C(=O)NCC1(N(C)C)CCCCC1`: the activity, negative = inhibition result was “inactive”.

As for `CN(C)C1(CNC(=O)c2ccccc2[N+](=O)[O-])CCCCC1`, the activity, negative = inhibition result is “inactive”.

Consider `CN(C)C1CCCC1OC(=O)C(O)(c1ccccc1)c1ccccc1` (stereo unspecified), for which the activity, negative = inhibition entry was “inactive”.

Regarding `CN(C)c1ccc(C(=O)NCC2(N(C)C)CCCCC2)cc1`, the activity, negative = inhibition result is “inactive”.

For `Cc1cc(C(=O)NCC2(N3CCCCC3)CCCCC2)ccc1[N+](=O)[O-]`, the activity, negative = inhibition result is “inactive”.

Take `CCN1CCCC(OC(=O)C2(O)c3ccccc3C=Cc3ccccc32)C1` (stereo unspecified): the activity, negative = inhibition entry was “inactive”.

Consider `O=C(NCC1(N2CCCCC2)CCCCC1)c1cccc(Br)c1`, for which the activity, negative = inhibition result is “inactive”.

As to `COc1ccc(C(=O)NCC2(N(C)C)CCCCC2)cc1`, the activity, negative = inhibition is inactive: -22.7% [at 2.33 µM].

On to `CCOc1cccc(C(=O)NCC2(N(C)C)CCCCC2)c1`, for which the activity, negative = inhibition result was “inactive”.

On to `CN1[C@@H]2CC[C@H]1CC(OC(=O)C(O)(c1ccccc1)c1ccccc1)C2` (stereo partly specified), for which the activity, negative = inhibition result was “inactive”.

As for `O=C(NCC1(N2CCCCC2)CCCCC1)c1cc([N+](=O)[O-])ccc1Cl`, the activity, negative = inhibition result is “inactive”.

Consider `CN(C)C1(CNC(=O)c2ccccc2F)CCCCC1`, for which the activity, negative = inhibition entry is “inactive”.

Take `Cc1ccc(C(=O)NCC2(N3CCCCC3)CCCCC2)cc1`: the activity, negative = inhibition result is “inactive”.

For `CC(C)N1C(=O)CC2(CCN(CCOC(=O)C(O)(c3ccccc3)c3ccccc3)CC2)C1=O`, the activity, negative = inhibition was inactive: 20.1% [at 12.7 µM].

Regarding `CCN(CC)CC(C)C(C)OC(=O)C(O)(c1ccccc1)c1ccccc1` (stereo unspecified), the activity, negative = inhibition was inactive: 9.67% [at 12.7 µM].

Regarding `CN(C)C1(CNC(=O)c2cccc(Cl)c2)CCCCC1`, the activity, negative = inhibition result is “inactive”.

`COc1cc(SC)ccc1C(=O)NCC1(N(C)C)CCCCC1`: the activity, negative = inhibition was inactive: -11.3% [at 2.33 µM].

`CC(C)COc1ccc(C(=O)NCC2(N(C)C)CCCCC2)cc1`: the activity, negative = inhibition result is “inactive”.

Turning to `O=C(OC1CN2CCC1CC2)C(CO)(c1ccccc1)c1ccccc1` (stereo unspecified), the activity, negative = inhibition was inactive: -11.9% [at 12.7 µM].

On to `COc1cccc(C(=O)NCC2(N3CCOCC3)CCCCC2)c1`, for which the activity, negative = inhibition entry was “inactive”.

Turning to `CN(C)c1cccc(C(=O)NCC2(N(C)C)CCCCC2)c1`, the activity, negative = inhibition entry was “inactive”.

Turning to `CC(C)Oc1ccc(C(=O)NCC2(N(C)C)CCCCC2)cc1`, the activity, negative = inhibition result is “inactive”.

As to `COc1cc(C(=O)NCC2(N(C)C)CCCCC2)cc(OC)c1OC`, the activity, negative = inhibition entry was “inactive”.

Turning to `Cc1cccc(C(=O)NCC2(N(C)C)CCCCC2)c1`, the activity, negative = inhibition entry was “inactive”.

On to `COc1cc(C(=O)NCC2(N(C)C)CCCCC2)c([N+](=O)[O-])cc1OC`, for which the activity, negative = inhibition entry is “inactive”.

In the case of `CN(C)C1(CNC(=O)c2ccc(Br)cc2)CCCCC1`, the activity, negative = inhibition result was “inactive”.

As for `O=C(NCC1(N2CCCCC2)CCCCC1)c1cccc(Cl)c1`, the Potency was active: 20 µM.

As for `COc1ccc(C(=O)NCC2(N(C)C)CCCCC2)cc1Cl`, the activity, negative = inhibition entry is “inactive”.

`COc1cccc(C(=O)NCC2(N3CCCCC3)CCCCC2)c1`: the activity, negative = inhibition result was “inactive”.

For the compound `COc1ccc(Cl)cc1C(=O)NCC1(N(C)C)CCCCC1`, the activity, negative = inhibition result is “inactive”.

The values above are taken from PubChem BioAssay AID504332 (National Center for Advancing Translational Sciences (NCATS), 2011).
